Measurements from ChEMBL document CHEMBL1138847, “Improved structure-activity relationship analysis of HIV-1 protease inhibitors using interaction kinetic data” (J Med Chem, 2004).

Experiments:
[1] = target: T1, Human immunodeficiency virus type 1 protease (Human immunodeficiency virus 1, UniProt Q72874); assay: Binding affinity for human immunodeficiency virus type 1 protease
[2] = target: T1, Human immunodeficiency virus type 1 protease; assay: Inhibition constant for human immunodeficiency virus type 1 protease

## Cc1cccc(C)c1OCC(=O)N[C@@H](Cc1ccccc1)[C@@H](O)C[C@H](Cc1ccccc1)NC(=O)[C@H](C(C)C)N1CCCNC1=O [LOPINAVIR]
[1]
  Kd: 0.1 nM
[2]
  Ki: 0.08 nM
